From paper PMC6724135, “The Biosynthetic Pathway of Major Avenanthramides in Oat” (Metabolites, 2019)

The chains behind the UniProt entries cited, without tags or fusion partners. Where a name states a change or a piece, a line headed by the entry shows the natural chain unless it says otherwise.
UniProt A0A4Y5UJ70: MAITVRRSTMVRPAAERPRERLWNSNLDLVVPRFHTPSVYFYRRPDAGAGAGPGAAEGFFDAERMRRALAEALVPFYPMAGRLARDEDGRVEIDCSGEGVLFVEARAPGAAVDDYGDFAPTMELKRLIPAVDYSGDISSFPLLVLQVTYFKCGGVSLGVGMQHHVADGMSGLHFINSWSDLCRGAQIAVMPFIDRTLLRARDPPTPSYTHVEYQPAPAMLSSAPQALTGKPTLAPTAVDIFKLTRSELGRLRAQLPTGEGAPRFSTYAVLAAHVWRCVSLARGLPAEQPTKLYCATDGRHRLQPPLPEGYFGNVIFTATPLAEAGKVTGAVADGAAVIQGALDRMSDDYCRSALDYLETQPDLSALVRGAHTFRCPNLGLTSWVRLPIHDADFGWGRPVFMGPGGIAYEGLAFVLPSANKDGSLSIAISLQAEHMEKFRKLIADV
UniProt Q7XXP3: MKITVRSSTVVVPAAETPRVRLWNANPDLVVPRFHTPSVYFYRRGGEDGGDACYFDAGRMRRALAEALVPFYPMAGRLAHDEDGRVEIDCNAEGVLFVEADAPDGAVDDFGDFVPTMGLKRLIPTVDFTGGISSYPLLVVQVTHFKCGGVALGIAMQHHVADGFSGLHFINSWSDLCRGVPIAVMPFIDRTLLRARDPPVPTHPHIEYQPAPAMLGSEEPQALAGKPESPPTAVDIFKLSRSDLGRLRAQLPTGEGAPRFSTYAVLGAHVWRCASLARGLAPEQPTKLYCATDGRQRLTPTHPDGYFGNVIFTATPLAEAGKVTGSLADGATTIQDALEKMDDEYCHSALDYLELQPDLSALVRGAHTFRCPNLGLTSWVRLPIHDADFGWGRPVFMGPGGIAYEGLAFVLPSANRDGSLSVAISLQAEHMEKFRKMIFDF

What was measured:
AsHHT4 = molecular target: T1, AsHHT4 (Avena sativa, UniProt A0A4Y5UJ70); assay: HPLC and MS of product Avn-A; conditions: with 5-hydroxyanthranilic acid, Tris-HCl pH 7.2, 30 °C
T1 construct: gene HHT4

AsHHT1 = molecular target: T2, AsHHT1 (Avena sativa, UniProt Q7XXP3); assay: HPLC and MS of product Avn-A; conditions: with 5-hydroxyanthranilic acid, Tris-HCl pH 7.2, 30 °C
T2 construct: gene HHT1

How did the “HPLC and MS of product Avn-A” value (AsHHT4) turn out when `CC(C)(COP(=O)(O)OP(=O)(O)OC[C@H]1O[C@@H](n2cnc3c(N)ncnc32)[C@H](O)[C@@H]1OP(=O)(O)O)[C@@H](O)C(=O)NCCC(=O)NCCSC(=O)/C=C/c1ccc(O)cc1` [p-coumaroyl-CoA] was run?
The value was “Both purified enzymes could catalyze the condensation of 5-hydroxyanthranilic acid and p-coumaroyl-CoA”.

What about the “HPLC and MS of product Avn-A” value (AsHHT1) of the same molecule?
The value was “Both purified enzymes could catalyze the condensation of 5-hydroxyanthranilic acid and p-coumaroyl-CoA”.
